Measurements taken from article PMC6160342.

Molecular target: biotin-labeled SUMO-fusion ST SseC-SscA (S. Typhimurium) (UniProt O84947)
Experiment: SPR

## VPS35/VPS26A subcomplex (from UniProt Q96QK1 1-796; O75436 1-327)
  Kd: 380 nM
